Compound activity (PubChem BioAssay)
Nrf2 block – blocks Nrf2 signaling; A549 ARE-Fluc reporter, luciferase luminescence, 18-24 h; Potency, µM (series often up to 46 µM), usual class: inhibitors; 360,000 compounds, 2.1% hits; further: nearly all actives have a fitted effect of over 60% in size
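Nrf2 activity is the BugLite luminescence, read 15 min after reagent at room temperature, following CellTiter-Fluor cytotoxicity readout (30 min, 37C). Compound titrations were applied for 18-24 h to 5000 A549 ARE_Fluc cells/well in 5% FBS OPTI-MEM.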
miR-21 FLuc – raises the signal of a miR-21 reporter; HeLa miR-21 FLuc reporter, luciferase, 48 h; Potency, µM (highest dose often 38.3 µM); 340,000 tested, under 10 active; active = well fitted rising curve with a large enough effect; inconclusive = small, poorly fitted or top-dose-only effect; inactive = no such curve, though single readings can be large or run the other way;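 also: miR-21 action dims this reporter so a rising signal means less miR-21 action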
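HeLa cells endogenously expressing miR-21, stably carrying CMV-driven firefly luciferase with a downstream miR-21 binding site, 2000 cells/well. Titrations up to approximately 40 uM, 48 hours; luciferase luminescence read.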
Nrf2 activator – activators of Nrf2 (ARE) signaling; Potency, µM (series often up to 46.1 µM), most hits filed as activators; AREc32 ARE-luciferase reporter (MCF7-derived line), luminescence, 24 h; 410,000 compounds, 0.31% hits; further: nearly all actives have a fitted effect of over 65% in size
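Nrf2 activation is followed as ARE-luciferase induction in the AREc32 line after one day of compound treatment; luminescence is read with Steady-Glo.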
TCR act – activators of T cell receptors. 330,000 tested, under 10 active. primary human leukocytes, anti-CD3, IL-2 HTRF, 48 h. Potency, µM (doses to about 9.22 µM), usual class: activators
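Primary human leukocytes were stimulated with a-CD3 beads plus compounds for 48 hr without co-stimulation; secreted IL-2 was quantified by HTRF using a-IL-2-K (europium cryptate) and a-IL-2-d2, excited at 320nm with acceptor emission read at 665nm.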
ClpP mod – qHTS Assay for Activators of ClpP; AID 651965, 2013; ATP-dependent Clp protease proteolytic subunit (Bacillus subtilis (strain 168)), P80244; Potency, µM (highest dose often 57.5 µM); purified B. subtilis ClpP, FRET peptide cleavage, 20 min; 340,000 compounds, 1.9% hits; active means well fitted falling curve with a large enough effect; inconclusive means small, poorly fitted or top-dose-only effect; inactive means no such curve, though single readings can be large or run the other way; further: the source files actives as falling curves though it sought activators and does not explain the sign; nearly all actives have a fitted effect of over 65% in size
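FRET quenching reversal measured ClpP activation: 10 microg/mL B. subtilis ClpP at pH 8 with the FRET-FV decapeptide, read at 430 nm after 320 nm excitation. The 20-min minus 0-min signal was scaled between DMSO/no-enzyme wells and ADEP (5.8 microM final).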
A549 tox – kills or reduces viability of A549 cells in Nrf2 counter-screen. 390,000 compounds, 0.16% hits. A549 ARE-Fluc cells, CellTiter-Fluor viability, 18-24 h. Potency, µM (series often up to 46 µM), actives largely listed as inhibitors. AID 504648
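A549 ARE_Fluc cells in 5% FBS OPTI-MEM were exposed to compounds in concentration-response for 18-24 h at 37 deg C. Viability was read by CellTiter-Fluor fluorescence (Ex 405/Em 525) after 30 min, before the luciferase read.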
Of the large screens only hits and unclear results are named; the others gave an inactive call. The list is not random: actives were taken first. Their share in the collection is about 3.7%. Unless noted, the call rests on the fitted dose curve; in most records, active means well fitted curve in the direction sought with a large enough effect; inconclusive means small, poorly fitted or top-dose-only effect, or another doubt; inactive means no such curve, though single readings can be large; an effect the other way counts as inactive or inconclusive.

CN(Cc1ccccc1)C(=O)C1CCCN(Cc2ccc(Cl)cc2)C1 (stereo unspecified)	ClpP mod 11µM
CCN(CC)C(=O)C1CCCN(Cc2ccccc2)C1 (stereo unspecified)	none
Cc1cc2cc(C)c(NCCNC(=O)c3ccccc3)nc2cc1C	none
COCC(=O)NCCNc1nc2ccc(C)cc2cc1C	ClpP mod 28µM
CCOc1ccc2nc(NCCNC(=O)C(C)C)c(C)cc2c1	ClpP mod 16µM
CCOc1ccc2nc(NCCNC(=O)C3CC3)c(C)cc2c1	ClpP mod 40µM
Cc1ccc(C(=O)NCCNc2nc3cc(C)c(C)cc3cc2C)cc1	none (no result: ClpP mod)
CCOc1ccc2nc(NCCNC(=O)c3cc(OC)c(OC)c(OC)c3)c(C#N)cc2c1	A549 tox inconclusive
Fc1cccc(NCc2cccn2-c2nnc(N3CCOCC3)s2)c1	Nrf2 block inconclusive (no result: TCR act)
COC(=O)c1ccc(NC(=O)CN2CCC(NC(=O)c3ccccc3F)CC2)cc1	none (no result: Nrf2 block, miR-21 FLuc, TCR act, A549 tox)
CCOC(=O)c1noc2ncn(CC(=O)O)c(=O)c12	none (no result: TCR act)
CC(OC(=O)c1cccc(-n2cnnn2)c1)C(=O)c1ccccc1 (stereo unspecified)	none (no result: miR-21 FLuc, ClpP mod)
O=c1[nH]ncc(N/N=C\c2cccs2)c1Cl	Nrf2 activator 4.5µM (no result: ClpP mod)
COC(=O)Cc1c(C)c2ccc(OCC(=O)N3CCCC3)c(C)c2oc1=O	ClpP mod inconclusive
COc1ccc2c(C)c(Cc3ccccc3)c(=O)oc2c1OC	none
CCCCc1c(C)c2ccc(OC)c(/C(C)=N\O)c2oc1=O	ClpP mod 8.9µM
CCOC(=O)CCc1c(C)c2ccc(OCC)c(C)c2oc1=O	ClpP mod 32µM
CCOC(=O)CCc1c(C)c2ccc(OCC(=O)N3CCOCC3)c(C)c2oc1=O	ClpP mod 10µM
CCOC(=O)COc1ccc2c3c(c(=O)oc2c1C)CCC3	ClpP mod 13µM
Cc1c(OCC(=O)C(C)(C)C)ccc2c3c(c(=O)oc12)CCCC3	none
CCCOc1ccc(C(=O)Nc2nonc2-c2ccc(OCC)cc2)cc1	none (no result: TCR act)
C[C@H]1CN([C@@H](C)CO)C(=O)c2cc(-c3cccc(C#N)c3)cnc2O[C@H]1CN(C)C(=O)c1ccccn1	none (no result: Nrf2 block, miR-21 FLuc, TCR act, A549 tox)
Cc1ccc(CNC(=O)Cn2c(=O)n(-c3cccc(Cl)c3)c(=O)c3sc4ccccc4c32)cc1	ClpP mod inconclusive (no result: TCR act)
COc1ccc2c3c(c(=O)oc2c1OCC(N)=O)CCCC3	ClpP mod 28µM
O=C(/C=C/c1ccc(Br)o1)Nc1nccs1	Nrf2 block inconclusive, Nrf2 activator 6.3µM
C/C(=N\NC(=O)COc1ccccc1[N+](=O)[O-])c1cccs1	Nrf2 block inconclusive, Nrf2 activator 8.9µM (no result: ClpP mod)
O=C(CN1CCN(Cc2cccc(C(F)(F)F)c2)CC1)NCC(=O)Nc1ccc(F)c(F)c1F	none (no result: miR-21 FLuc)
C=CCS(=O)(=O)N1CCCC(N2CCN(c3ccccc3OC)CC2)C1 (stereo unspecified)	none
C=CCNC(=O)N1CCCC(N2CCN(c3ccccc3OC)CC2)C1 (stereo unspecified)	ClpP mod 16µM
CC1(C)CC(=O)c2c(-c3cccs3)n[nH]c2C1	ClpP mod 25µM
COc1ccc(N2CCN(c3c4c(nc5nncn35)CCC4)CC2)cc1	Nrf2 block 21µM (no result: TCR act)
Cc1onc(-c2ccc3c(c2)OCO3)c1-c1ccc2[nH]ccc2c1	Nrf2 block 15µM
c1cc2cc(-c3c(-c4ccc5c(c4)OCO5)noc3-c3ccsc3)ccc2[nH]1	ClpP mod inconclusive
CC1CCN(c2ncnc3ccccc23)CC1	Nrf2 block 15µM
CC1CCN(c2nc(-c3ccccc3O)nc3ccccc23)CC1	none
COc1ccc(Cl)cc1NC(=O)CN(c1cccc(C)c1C)S(=O)(=O)c1ccccc1	none (no result: TCR act)
COc1ccc(OCC(=O)N2CCN(c3nnc(-c4ccc(C)cc4)c4ccccc34)CC2)cc1	Nrf2 block inconclusive
Cc1ccc(-c2nnc(N3CCCCCC3)c3ccccc23)cc1	Nrf2 block 23µM, A549 tox inconclusive
O=C(COc1ccccc1)N1CCN(c2nnc(-c3ccccc3)c3ccccc23)CC1	Nrf2 block 21µM, A549 tox inconclusive
Cc1ccc(OCC(=O)N2CCN(c3nnc(-c4ccc(C)cc4)c4ccccc34)CC2)cc1	Nrf2 block 18µM, A549 tox inconclusive
O=C(NCc1ccc(F)cc1)c1ccc2c(c1)N(Cc1c(F)cccc1Cl)C(=O)CS2	none (no result: TCR act)
CCOc1ccc(OCC(=O)Nc2nnc3n2CCS3)cc1	none (no result: Nrf2 block, TCR act)
CCC1CCCCN1CC(O)Cn1c2ccccc2n2c(=O)cc(C)c(C#N)c12 (stereo unspecified)	ClpP mod 28µM
Cc1cc(=O)n2c3ccccc3n(CC(O)CN3CCC(C)CC3)c2c1C#N (stereo unspecified)	ClpP mod 35µM
Cc1cc(=O)n2c3ccccc3n(CC(O)CN3CCN(Cc4ccccc4)CC3)c2c1C#N (stereo unspecified)	none
CCOC(=O)C1=C(C(=O)OCC)c2ccc(OC)c(OC)c2C1	Nrf2 block inconclusive (no result: miR-21 FLuc, ClpP mod)
COCC(C)NC(=O)CCS(=O)(=O)c1nc(-c2ccc(OC)cc2)cc(C(F)(F)F)n1 (stereo unspecified)	Nrf2 activator 16µM
COC(=O)CCS(=O)(=O)c1nc(-c2ccccc2)cc(C(F)(F)F)n1	Nrf2 block inconclusive, miR-21 FLuc inconclusive, Nrf2 activator inconclusive, A549 tox inconclusive
CCOC(=O)CS(=O)(=O)c1nc(-c2ccccc2)cc(C(F)(F)F)n1	Nrf2 block inconclusive, miR-21 FLuc inconclusive, Nrf2 activator inconclusive, A549 tox inconclusive
CCOC(=O)CS(=O)(=O)c1nc(-c2ccc(F)cc2)cc(C(F)(F)F)n1	Nrf2 block 16µM, miR-21 FLuc inconclusive, Nrf2 activator inconclusive, ClpP mod 22µM, A549 tox inconclusive
CN(C)S(=O)(=O)N1CCN(CC(O)COc2ccc(-c3ccccc3)cc2)CC1 (stereo unspecified)	none
Cc1ccccc1S(=O)(=O)NC(=O)C1(C)CCN1C(=O)C(C)(C)c1ccccc1 (stereo unspecified)	none (no result: Nrf2 block, miR-21 FLuc, TCR act, A549 tox)
COc1ccc(-c2sc3ccc(OC)cc3c2-c2ccc(OCCN3CCOCC3)cc2)cc1	TCR act inconclusive, ClpP mod 16µM (no result: miR-21 FLuc)
COc1ccc(-c2sc3ccccc3c2-c2ccc(OCCN3CCCCC3)cc2)cc1	ClpP mod 28µM (no result: miR-21 FLuc)
COc1ccc(-c2c(-c3ccccc3OC)sc3ccccc23)cc1OC	ClpP mod 28µM
COc1cccc(-c2sc3cc(OC)c(OC)cc3c2-c2ccc(OCCN3CCCCC3)cc2)c1	Nrf2 block inconclusive, ClpP mod 28µM, A549 tox inconclusive (no result: miR-21 FLuc)
